Source text in series [1]: (§1) The toxic metals were reported as μg/g creatinine in order to account for urine dilution variations.
as §1, §1, §1

The conditions of series [2]: Child D, before therapy; reference range 0.0-14.9 μg/L.

Where two headings read alike, the source gives them in different places.

Mercury: in series [1] (Child D, autistic person, before therapy), the “Level of mercury in urine” value is “undetectable levels”. Further, the “Toxic metals in urine, Results” value in series [1] (Child X (autistic person), urine collected Nov. 5, 2000, during DMSA treatment, creatinine 43.4 mg/dL) amounted to 15 μg/g creatinine; in series [1] (Child X, urine collected Sep. 30, 2001, during DMSA treatment, creatinine 54 mg/dL), 5.4 μg/g creatinine; in series [1] (Child Y (autistic person), urine collected Jun. 29, 2002, during DMSA treatment, creatinine 6.9 mg/dL) it was 29 μg/g creatinine; in series [1] (Child Y, urine collected Dec. 24, 2002, during DMSA treatment, creatinine 8.6 mg/dL), 11 μg/g creatinine. Moreover, the “Level of mercury in blood” value in series [2] was found to be 1.5 ng/mL.

The record behind these values is patent US20070254314A1, “Methods of treating autism and autism spectrum disorders” (priority 2004, published 2007).
